Sequences of proteins named here, by UniProt entry; tags and fusion partners are left off. Residues count along the entry.
UniProt P11362, 22-376: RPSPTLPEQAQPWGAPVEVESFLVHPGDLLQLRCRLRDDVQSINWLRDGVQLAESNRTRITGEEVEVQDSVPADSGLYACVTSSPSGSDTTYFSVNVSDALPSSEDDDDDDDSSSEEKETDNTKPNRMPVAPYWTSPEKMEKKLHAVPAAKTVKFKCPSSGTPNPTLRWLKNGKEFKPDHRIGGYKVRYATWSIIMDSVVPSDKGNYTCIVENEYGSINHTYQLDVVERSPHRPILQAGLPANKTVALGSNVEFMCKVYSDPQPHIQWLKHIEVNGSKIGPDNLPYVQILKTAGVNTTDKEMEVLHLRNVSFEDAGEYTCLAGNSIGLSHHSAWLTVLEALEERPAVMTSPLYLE

In patent US20190367620A1:

Biological target: huFGFR1a-IIIc (human) (UniProt P11362)
Assay: SPR (Biacore 4000), antibody captured, His-tagged FGFR1 injected; no unit in the table, nM inferred from paragraph 90

- Kd: 0.2 nM
B1: mAb #A05 (antibody, V domains shown)
VH: QMQLVQSGAEVKKPGASVKVSCKASGHTFTGYYMHWVRQAPGQGLEWMGWINPNSGGTNYAQKFQGRVTMTRDTSISTAYMELSRLRSDDTAVYYCARDLFWSLSSGWSIHPYYFDYWGQGTLVTVSS
VL: QSALTQPASVSGSPGQSITISCTGTSSDVGSYNLVSWYQQHPGKAPKLMIYGGSKRPSGVPDRFSGSKSDTSASLTISGLQAEDEADYYCCSYTYNGDVFGTGTKVTVL
